The target in the experiment is T1, Catechol O-methyltransferase (Rattus norvegicus, UniProt P22734).
T1 sequence (P22734 whole entry): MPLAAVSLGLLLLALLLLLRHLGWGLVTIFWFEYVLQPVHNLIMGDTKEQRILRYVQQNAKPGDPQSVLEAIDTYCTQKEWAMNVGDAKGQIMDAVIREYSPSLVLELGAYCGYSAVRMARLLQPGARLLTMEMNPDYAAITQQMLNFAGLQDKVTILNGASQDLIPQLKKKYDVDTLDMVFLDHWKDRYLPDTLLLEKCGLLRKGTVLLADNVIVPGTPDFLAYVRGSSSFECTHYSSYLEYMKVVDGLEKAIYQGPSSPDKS
In words: Inhibitory activity against COMT in rat brain. In kind it is tissue-based.

Structures are written as SMILES.

In ChEMBL document CHEMBL1140432, “Synthesis and biological evaluation of a novel series of "ortho-nitrated" inhibitors of catechol-O-methyltransferase” (J Med Chem, 2005) one finds IC50 data, which are given here for one molecule.

The molecule `O=C(Cc1ccccc1)c1cc(O)c(O)c([N+](=O)[O-])c1` [NEBICAPONE] returned an IC50 of 3.7 nM.
